{"source": "patent US5858736A", "about": "“Preparation of lactams from aliphatic α,ω-dinitriles” (priority 1996, dated 1999)", "key": {"[1]": {"system": "A. facilis 72W", "assay": "Reduction in viable cells on exposure to mutagenic agent", "settings": "100 μg/mL, approximately 30 minutes"}, "[2]": {"settings": "in water; cited from earlier work"}}}
{"molecule": "CN(N=O)C(=N)N[N+](=O)[O-]", "values": [{"measurement": "reduction in viable cells in the culture", "setting": "[1]", "result": 99.9, "unit": "%"}]}
{"molecule": "ammonium ion", "values": [{"measurement": "pKa (ammonium ion)", "setting": "[2]", "result": 9.25}]}
